Earlier results in article PMC3158827 (ACS chemical biology, 2011).

How the values were obtained:
trypsin = conditions: cited from earlier work
pepsin = conditions: cited from earlier work

kalata B1
resistance to trypsin degradation (trypsin): completely resistant | resistance to pepsin degradation (pepsin): completely resistant
